Sequences of proteins named here, by UniProt entry; tags and fusion partners are left off. Residues count along the entry.
UniProt P08709, 61-212 limits assumed: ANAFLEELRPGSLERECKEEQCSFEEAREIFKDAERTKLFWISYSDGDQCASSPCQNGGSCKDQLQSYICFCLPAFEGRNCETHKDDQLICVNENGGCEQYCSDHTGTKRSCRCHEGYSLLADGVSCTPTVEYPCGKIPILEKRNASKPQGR
UniProt P08709, 213-466 limits assumed: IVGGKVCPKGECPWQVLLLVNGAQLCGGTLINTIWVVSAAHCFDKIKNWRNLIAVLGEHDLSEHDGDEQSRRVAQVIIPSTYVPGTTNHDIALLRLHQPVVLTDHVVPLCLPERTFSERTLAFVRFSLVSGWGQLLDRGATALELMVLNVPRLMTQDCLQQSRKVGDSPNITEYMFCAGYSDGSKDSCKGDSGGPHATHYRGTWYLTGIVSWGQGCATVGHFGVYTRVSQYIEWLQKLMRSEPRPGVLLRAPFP
UniProt P00761, 9-231 limits assumed: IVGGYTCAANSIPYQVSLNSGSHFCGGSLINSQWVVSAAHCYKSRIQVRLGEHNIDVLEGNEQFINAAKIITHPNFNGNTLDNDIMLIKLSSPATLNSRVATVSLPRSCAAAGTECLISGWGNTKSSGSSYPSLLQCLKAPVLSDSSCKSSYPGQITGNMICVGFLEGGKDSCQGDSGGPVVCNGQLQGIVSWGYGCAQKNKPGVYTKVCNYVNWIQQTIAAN
UniProt P00742, 41-179 limits assumed: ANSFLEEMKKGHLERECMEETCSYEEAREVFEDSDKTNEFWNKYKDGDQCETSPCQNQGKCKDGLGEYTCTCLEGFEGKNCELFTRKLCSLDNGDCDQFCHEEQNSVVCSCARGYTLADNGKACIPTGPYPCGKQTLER
UniProt P00742, 235-488 limits assumed: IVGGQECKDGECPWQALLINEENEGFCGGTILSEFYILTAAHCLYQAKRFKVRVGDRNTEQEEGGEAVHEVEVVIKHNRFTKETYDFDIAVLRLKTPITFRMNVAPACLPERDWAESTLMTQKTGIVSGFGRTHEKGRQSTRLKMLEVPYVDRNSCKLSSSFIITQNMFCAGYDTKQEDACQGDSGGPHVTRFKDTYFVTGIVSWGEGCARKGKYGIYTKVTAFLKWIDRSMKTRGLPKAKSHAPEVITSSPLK
UniProt P13726, 33-251 partner limits assumed: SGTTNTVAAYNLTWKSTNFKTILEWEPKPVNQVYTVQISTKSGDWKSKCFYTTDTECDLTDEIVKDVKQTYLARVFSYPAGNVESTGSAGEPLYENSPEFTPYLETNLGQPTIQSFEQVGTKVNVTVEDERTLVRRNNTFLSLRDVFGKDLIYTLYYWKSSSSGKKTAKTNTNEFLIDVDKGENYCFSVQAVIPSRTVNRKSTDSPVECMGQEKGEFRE

According to patent publication EP1202975B1, “SUBSTITUTED POLYCYCLIC ARYL AND HETEROARYL PYRAZINONES USEFUL FOR SELECTIVE INHIBITION OF THE COAGULATION CASCADE” (Pharmacia Corporation, priority 1999, dated 2000):

Tests used:
TF-VIIa = TF-VIIa (Homo sapiens, UniProt P08709); assay: TF-VIIa Assay; assay type: biochemical; conditions: read-out: IC50 or % Inhibition TF-VIIa (30 µM); cells given as a plain number (IC50)
[1] = biological target: Trypsin (type IX from porcine pancreas) (Sus scrofa, UniProt P00761)
Human factor Xa = Human factor Xa (Homo sapiens, UniProt P00742); assay: Xa Assay; conditions: read-out: IC50 or % Inhibition Factor Xa (30 µM); cells given as a plain number (IC50)

Row | SMILES | IC50 (TF-VIIa) [µM] | IC50 [1] [µM] | IC50 (Human factor Xa) [µM]
1 | COc1ccccc1-c1c(Cl)nc(NCCc2ccc(Cl)c(Cl)c2)c(=O)n1CC(=O)NCc1ccc(C(=N)N)cc1 | 1.8 | 1.4 | > 30
2 | N=C(N)c1ccc(CNC(=O)Cn2c(-c3cccc(F)c3)c(Cl)nc(NCCc3ccc(Cl)c(Cl)c3)c2=O)cc1 | 2.9 |  | > 30
3 | N=C(N)c1ccc(CNC(=O)Cn2c(-c3ccc(C(F)(F)F)cc3)c(Cl)nc(NCCc3ccc(Cl)c(Cl)c3)c2=O)cc1 |  |  | > 30
4 | N=C(N)c1ccc(CNC(=O)Cn2c(-c3ccccc3Cl)c(Cl)nc(NCCc3ccc(Cl)c(Cl)c3)c2=O)cc1 | 4.4 | 2.4 | > 30
5 | N=C(N)c1ccc(CNC(=O)Cn2c(-c3ccccc3F)c(Cl)nc(NCCc3ccc(Cl)c(Cl)c3)c2=O)cc1 | 3.1 | 1.8 | > 30
6 | N=C(N)c1ccc(CCNC(=O)Cn2c(-c3ccccc3)c(Cl)nc(NCCc3ccccc3)c2=O)cc1 |  | 7 | 

Results, then the compound that gave them:

Row | IC50 (TF-VIIa) [µM] | IC50 [1] [µM] | IC50 (Human factor Xa) [µM] | SMILES
7 | 2.6 | 1 | > 30 | COc1cccc(-c2c(Cl)nc(NCCc3ccc(Cl)c(Cl)c3)c(=O)n2CC(=O)NCc2ccc(C(=N)N)cc2)c1
8 | 6.8 | 1.1 | > 30 | N=C(N)c1ccc(CNC(=O)Cn2c(-c3ccc(F)cc3)c(Cl)nc(NCCc3ccc(Cl)c(Cl)c3)c2=O)cc1
9 | 4.1 | 4.1 | > 30 | N=C(N)c1ccc(CNC(=O)Cn2c(-c3ccccc3C(F)(F)F)c(Cl)nc(NCCc3ccc(Cl)c(Cl)c3)c2=O)cc1
10 | 4.73 | 0.67 |  | CCc1c(Cl)nc(NCc2ccccc2)c(=O)n1CC(=O)NCc1ccc(C(=N)N)cc1
11 | 3.6 | 1.6 | > 30 | N=C(N)c1ccc(CNC(=O)Cn2c(-c3cccc(C(F)(F)F)c3)c(Cl)nc(NCCc3ccc(Cl)c(Cl)c3)c2=O)cc1
12 | 4.8 |  | > 30 | N=C(N)c1ccc(CNC(=O)Cn2c(-c3cccc(Br)c3)c(Cl)nc(NCCc3ccc(Cl)c(Cl)c3)c2=O)cc1
13 | 10.8 |  |  | N=C(N)c1ccc(CNC(=O)Cn2c(-c3ccccc3)c(Cl)nc(NCc3ccc4c(c3)OCO4)c2=O)cc1
